Patent EP0555208B1, “METAL OXIMATE POLYETHYLENE GLYCOLS CHEMICAL DECONTAMINANT SYSTEM” (dated 1992)

Legend:
[1] = Dissolution of active salt in base cream
[2] = In-vitro destruction of mustard gas, effect of added water; details: 0.625 molal KDAMO in MPEG350, two hours

For Potassium 2,3 butanedione monoximate, the “salt that appears to dissolve” value ([1]; 1.25 molar in base cream 1) was “at least 75%”, the “salt that appears to dissolve” value ([1]; 1.25 molar in base cream 2) was “at least 75%” and the “salt that appears to dissolve” value ([1]; 1.25 molar in base cream 3) was “dissolve completely”. For the same substance, the “effectiveness for destruction of mustard gas” value ([2]; additions of water at 5%, 10%, and 20%) was “decreased monotonically” and the “effectiveness for destruction of mustard gas retained” value ([2]; highest addition of water (20%)) was “more than 60%”.
In the case of Potassium acetophenone oximate, the “salt that appears to dissolve” value ([1]; 1.25 molar in base cream 1) is reported as “at least 75%”, the “salt that appears to dissolve” value ([1]; 1.25 molar in base cream 2) is reported as “at least 75%” and the “salt that appears to dissolve” value ([1]; 1.25 molar in base cream 3) is reported as “dissolve completely”. The solubility in base ([1]; 1.25 molar in base cream 4) was “soluble”.
For potassium acetone oximate, the “salt that appears to dissolve” value ([1]; 1.25 molar in base cream 1) was “at least 75%”, the “salt that appears to dissolve” value ([1]; 1.25 molar in base cream 2) was “at least 75%” and the “salt that appears to dissolve” value ([1]; 1.25 molar in base cream 3) was “dissolve completely”.
